Measurements from patent US20220218834A1, “APOHEMOGLOBIN-HAPTOGLOBIN COMPLEXES AND METHODS OF USING THEREOF” (OHIO STATE INNOVATION FOUNDATION, priority 2019, published 2022).

Experiment: Specificity of Al-PC binding to proteins (UV-visible absorbance at 680 nm)
Conditions: absorbance at 680 nm after Al-PC addition in PBS
Description: Optimization of EtOH Addition to ApoHb. The stock Al-PC solution was diluted 100× into 100% EtOH.
The concentrations of Hp, HSA, Hb and rHb in solution were 1.0 mg/mL, 0.35 mg/ml (and 3.5 mg/ml), 0.35 mg/mL, and 0.33 mg/mL respectively.

Al-PC binding: almost no binding to Al-PC
Substance: HSA: human serum albumin [reference compound]
